The text below walks through data of ChEMBL document CHEMBL1129385, “Aspartic acid conjugates of 2-(3,4-dichlorophenyl)-N-methyl-N-[(1S)-1(3-aminophenyl)-2-(1-pyrrolidi nyl) ethyl]acetamide: kappa opioid receptor agonists with limited access to the central nervous system” (J Med Chem, 1996).

Protein sequences, listed by entry. Tags and fused reporters are not part of them.
UniProt P41143, whole entry: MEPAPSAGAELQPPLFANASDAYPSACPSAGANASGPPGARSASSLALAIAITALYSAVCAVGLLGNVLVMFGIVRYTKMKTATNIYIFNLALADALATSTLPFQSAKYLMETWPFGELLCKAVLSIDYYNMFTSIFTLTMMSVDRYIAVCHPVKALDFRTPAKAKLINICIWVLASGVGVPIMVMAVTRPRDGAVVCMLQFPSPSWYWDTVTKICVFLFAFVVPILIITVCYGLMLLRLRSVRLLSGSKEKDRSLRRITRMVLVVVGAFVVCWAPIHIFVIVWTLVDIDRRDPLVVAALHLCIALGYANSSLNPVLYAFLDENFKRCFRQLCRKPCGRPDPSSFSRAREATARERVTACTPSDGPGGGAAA
UniProt P35372, whole entry: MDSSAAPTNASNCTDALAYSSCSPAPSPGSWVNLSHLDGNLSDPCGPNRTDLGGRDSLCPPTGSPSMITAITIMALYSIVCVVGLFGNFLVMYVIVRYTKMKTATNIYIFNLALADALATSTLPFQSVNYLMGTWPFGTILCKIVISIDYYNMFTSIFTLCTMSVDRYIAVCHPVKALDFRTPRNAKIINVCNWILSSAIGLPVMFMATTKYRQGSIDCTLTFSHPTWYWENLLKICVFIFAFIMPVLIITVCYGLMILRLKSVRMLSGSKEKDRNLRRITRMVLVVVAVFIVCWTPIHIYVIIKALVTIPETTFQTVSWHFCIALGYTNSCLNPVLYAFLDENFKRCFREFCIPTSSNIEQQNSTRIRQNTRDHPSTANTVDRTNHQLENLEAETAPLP
UniProt P41145, whole entry: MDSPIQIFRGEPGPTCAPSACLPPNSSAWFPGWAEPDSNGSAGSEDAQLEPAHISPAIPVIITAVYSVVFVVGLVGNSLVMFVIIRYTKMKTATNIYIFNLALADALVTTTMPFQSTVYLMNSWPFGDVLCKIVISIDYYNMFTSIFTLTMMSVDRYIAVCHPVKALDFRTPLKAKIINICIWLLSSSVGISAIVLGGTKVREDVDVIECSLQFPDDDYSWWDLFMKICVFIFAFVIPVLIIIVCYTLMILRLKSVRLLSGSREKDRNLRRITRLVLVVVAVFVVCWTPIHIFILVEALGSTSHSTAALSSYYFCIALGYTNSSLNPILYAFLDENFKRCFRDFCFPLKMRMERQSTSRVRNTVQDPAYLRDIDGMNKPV

What all share (conditions): Abdomen
The target in assay [1] is Delta-type opioid receptor (Homo sapiens) (UniProt P41143). The experiment in a line: Compound was tested for the NTI Delta receptor Selectivity of Antinociception in the Mouse Abdominal Stretch Assay by using antagonists; ED50 ratio.
The target in assay [2] is Mu-type opioid receptor (Homo sapiens) (UniProt P35372). The experiment in a line: Compound was tested for the beta-FNA Mu receptors Selectivity of Antinociception in the Mouse Abdominal Stretch Assay by using antagonists; ED50 ratio.
The target of assay [3] is Kappa-type opioid receptor (Homo sapiens) (UniProt P41145). The experiment in a line: Compound was tested for the nor-BNIb kappa receptors Selectivity of Antinociception in the Mouse Abdominal Stretch Assay by using antagonists; ED50 ratio.

For the compound `CN(C(=O)Cc1ccc(Cl)c(Cl)c1)[C@H](CN1CCCC1)c1ccccc1`, the Ratio amounted to 1.19 in assay [1], 1.72 in assay [2] and 2.31 in assay [3].
